Read-outs that look alike come from different tables or passages of the source.
Assays:
[1] = Rat Plasma; substrate 2.0 μM; no cofactors; 37° C.
[2] = Human Plasma; substrate 2.0 μM; no cofactors; 37° C.
[3] = Rat Liver S9 (0.5 mg/mL); substrate 2.0 μM; NADPH; 37° C.
[4] = Human Liver S9 (0.5 mg/mL); substrate 2.0 μM; NADPH; 37° C.
[5] = Human Intestine S9 (0.5 mg/mL); substrate 2.0 μM; NADPH; 37° C.

Substance: Cholyl-DOPA-(4-pivaloyloxymethyl) [(102)]
- Percent of (101) Released in 60 min [1]: 75%
- Percent of (101) Released in 60 min [2]: 90%
- Percent of (101) Released in 60 min [3]: 35%
- Percent of (101) Released in 60 min [4]: 70%
- Percent of (101) Released in 60 min [5]: 95%
